Only a part is listed here, and it is no random draw. Some results for these compounds are left out of this collection, so the calls shown say nothing about other tests. Active and inactive are the calls of the source.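 The calls were made as follows: active = activity change below a set negative limit, meaning inhibition stronger than a set level (cut at about -70% in these data); inconclusive = activity change between two set negative limits; inactive = the rest.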

Chains of the proteins cited; added tags and fusions are not shown.
UniProt P16473, whole entry: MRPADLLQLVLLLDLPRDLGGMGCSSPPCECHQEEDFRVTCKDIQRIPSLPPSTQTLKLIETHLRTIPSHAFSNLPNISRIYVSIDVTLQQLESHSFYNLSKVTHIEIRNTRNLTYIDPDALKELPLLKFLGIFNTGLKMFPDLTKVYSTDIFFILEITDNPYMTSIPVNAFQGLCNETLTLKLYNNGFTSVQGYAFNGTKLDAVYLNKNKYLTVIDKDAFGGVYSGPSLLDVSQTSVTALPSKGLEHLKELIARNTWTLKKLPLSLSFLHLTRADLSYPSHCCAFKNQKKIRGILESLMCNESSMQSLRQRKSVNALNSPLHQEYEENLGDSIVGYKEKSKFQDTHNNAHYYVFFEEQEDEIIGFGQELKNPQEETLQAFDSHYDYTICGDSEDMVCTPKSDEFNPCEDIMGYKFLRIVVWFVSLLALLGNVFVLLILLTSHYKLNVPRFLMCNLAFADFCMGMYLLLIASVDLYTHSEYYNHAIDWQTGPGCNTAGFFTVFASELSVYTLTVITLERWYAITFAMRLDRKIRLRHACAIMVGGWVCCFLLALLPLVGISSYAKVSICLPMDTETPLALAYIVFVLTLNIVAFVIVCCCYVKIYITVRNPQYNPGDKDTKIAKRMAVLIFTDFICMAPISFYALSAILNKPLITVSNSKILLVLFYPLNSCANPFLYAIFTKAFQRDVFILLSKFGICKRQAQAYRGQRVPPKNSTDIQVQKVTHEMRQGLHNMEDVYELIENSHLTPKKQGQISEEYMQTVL

In PubChem BioAssay AID504810 (National Center for Advancing Translational Sciences (NCATS), 2011) one finds activity change, negative = inhibition data, which are given here for 24 compounds.
% is scaled to controls: 0 for no effect and ±100 for the full control effect.

The target in this assay is Thyrotropin receptor (Homo sapiens) (UniProt P16473). Briefly: Antagonists of the Thyroid Stimulating Hormone Receptor: HTS campaign. As to conditions: TSHR-expressing cells, TSH-stimulated cAMP HTRF, 2 h; at 11.5 µM; hits give low values. The source says:
The thyroid-stimulating hormone receptor (TSHR) is a member of the 7 trans-membrane-spanning receptor (7TMR) family of cell surface receptors. TSHR-mediated hyperthyroidism is important in thyroid pathology. The development of small molecule antagonists of TSHR may lead to therapeutic approaches for TSHR-mediated hyperthyroidism caused by constitutively activating mutations or stimulating auto-antibodies associated with Graves' disease. Graves' disease is the leading cause of hyperthyroidism and is caused by autoantibodies that stimulate TSHR (TsAbs) causing thyroid growth and unregulated overproduction of thyroid hormones and existing treatments have liabilities (agranulocytosis). In addition, TSHRs are known to be expressed in multiple extrathyroidal tissues including bone, brain, kidney, testis, fat and cells of the immune system but the role of the TSHR in these tissues is not clear. Therefore, TSHR antagonists/inverse agonists could be used as probes of extrathyroidal TSHR function. Finally, TSHR inverse agonists, which are a subclass of antagonists that inhibit agonist-independent (or basal or constitutive) TSHR signaling, could be used to inhibit TSH-independent signaling in patients with recurrent or metastatic thyroid cancer who are receiving thyroid hormone to suppress TSH. In collaboration between scientist from the NCGC and the NIDDK, a miniaturized HTRF high-throughput screen was developed. It's a cell based assay, where an anti cAMP antibody contains a fluorescent cryptate tag (excitation 337 nm; emission 620 nm) and the acceptor is cAMP-d2 (excitation 620 nm; emission 665 nm). When antibody and cAMP-d2 interact and are excited by a 337 nm light, a FRET occurs resulting in emission at 665 nm. The assay is competition between cAMP-d2 and cAMP (from the cell lysate). The homogeneous protocol allows for one step dispense after stimulation that is automation friendly. NIH Chemical Genomics Center [NCGC] NIH Molecular Libraries Probe Centers Network [MLPCN] MLPCN Grant: MH090855-01 Assay Submitter (PI): Marvin Gerhengorn
1. 3ul of 200 TSHR freshly harvested cells/well are dispensed into a 1536 TC-treated white solid bottom plate. 2. Through pintool addition, 23nl of compounds and control in 100% DMSO are added to the plate. 3. Then 1ul of EC80 TSH (4nM final) is added to the plate. 4. Assay is incubated at 37 deg C for 2 hours. 5. 2ul of cAMP antibody diluted 1:20 in lysis buffer is added. 6. Immediately following, 2ul of d2 diluted 1:20 in HBSS is added seperately. 7. The assay is incubated for 30 minutes at ambient room temperature. 8. The result is obtained by using a ViewLux read-out with HTRF settings.
Background: In TR-FRET formats the signal depends on donor and acceptor labels being close together.
On to `COc1ccc(Br)c(C(=O)NCC2(N3CCCCC3)CCCCC2)c1`, for which the activity change, negative = inhibition was inactive: 19%.
For the compound `CC(C)Oc1ccc(C(=O)NCC2(N(C)C)CCCCC2)cc1`, the activity change, negative = inhibition is inactive: 5.01%.
Regarding `CN(C)c1cccc(C(=O)NCC2(N(C)C)CCCCC2)c1`, the activity change, negative = inhibition is inactive: -10.7%.
For the compound `O=C(OC1CN2CCC1CC2)C(CO)(c1ccccc1)c1ccccc1` (centres undefined), the activity change, negative = inhibition was inactive: 11.1%.
The result for `COc1ccc(Cl)cc1C(=O)NCC1(N(C)C)CCCCC1` reads inactive: 4.8%.
With `COc1cccc(C(=O)NCC2(N3CCCCC3)CCCCC2)c1`, the activity change, negative = inhibition is inactive: 3.98%.
The result for `O=C(NCC1(N2CCCCC2)CCCCC1)c1cccc(Cl)c1` reads inactive: 9.92%; that for `CN(C)C1(CNC(=O)c2ccc(Br)cc2)CCCCC1`, inactive: 4.55%; that for `COc1cc(C(=O)NCC2(N(C)C)CCCCC2)c([N+](=O)[O-])cc1OC`, inactive: 15%.
The result for `O=C(NCC1(N2CCCCC2)CCCCC1)c1cc(F)c(F)cc1Cl` reads inactive: -2.74%; that for `C=CCN1CCN(CCOC(=O)C(O)(c2ccccc2)c2ccccc2)CC1`, inactive: 19.4%; that for `COc1ccc(C(=O)NCC2(N(C)C)CCCCC2)cc1`, inactive: 8.42%.
The figure for `O=C(NCC1(N2CCCCC2)CCCCC1)c1cccc(Br)c1` is inactive: 9.51%; for `Cc1cc(C(=O)NCC2(N3CCCCC3)CCCCC2)ccc1[N+](=O)[O-]` it is inactive: 14.8%; for `CCN1CCCC(OC(=O)C2(O)c3ccccc3C=Cc3ccccc32)C1` (centres undefined) it is inactive: -5.04%.
As to `CN(C)C1CCCC1OC(=O)C(O)(c1ccccc1)c1ccccc1` (centres undefined), the activity change, negative = inhibition was inactive: 5.43%.
The result for `CN(C)c1ccc(C(=O)NCC2(N(C)C)CCCCC2)cc1` reads inactive: -7.92%; that for `Cc1ccccc1C(=O)NCC1(N2CCCCC2)CCCCC1`, inactive: 9.57%.
Take `COc1cc(SC)ccc1C(=O)NCC1(N(C)C)CCCCC1`: the activity change, negative = inhibition was inactive: -5.29%.
The figure for `CCN(CC)CC(C)C(C)OC(=O)C(O)(c1ccccc1)c1ccccc1` (centres undefined) is inactive: -6.25%; for `CC(C)N1C(=O)CC2(CCN(CCOC(=O)C(O)(c3ccccc3)c3ccccc3)CC2)C1=O` it is inactive: 38.2%.
The result for `Cc1ccc(C(=O)NCC2(N3CCCCC3)CCCCC2)cc1` reads inactive: 8.15%.
Regarding `O=C(NCC1(N2CCCCC2)CCCCC1)c1cc([N+](=O)[O-])ccc1Cl`, the activity change, negative = inhibition was inactive: 6.17%.
The result for `CN1[C@@H]2CC[C@H]1CC(OC(=O)C(O)(c1ccccc1)c1ccccc1)C2` (some centres undefined) reads inactive: -10.4%.
